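Exposure lasted 48 hours, with cells grown in 96-well plates and compounds tested at five concentrations. GI50 = concentration required for 50% inhibition of growth. At the TGI there is no net growth.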
Key:
Assay in all cases: growth of human tumour cells (NCI), 48 h
MALME-3M melanoma = test system: MALME-3M melanoma
A498 renal = test system: A498 renal
NCI-H322M lung = test system: NCI-H322M lung
IGROV1 ovarian = test system: IGROV1 ovarian
NCI-H522 lung = test system: NCI-H522 lung
SK-MEL-5 melanoma = test system: SK-MEL-5 melanoma
K-562 leukemia = test system: K-562 leukemia
MOLT-4 leukemia = test system: MOLT-4 leukemia
ACHN renal = test system: ACHN renal
HOP-62 NSCLC = test system: HOP-62 NSCLC
SN12C renal = test system: SN12C renal
SK-MEL-2 melanoma = test system: SK-MEL-2 melanoma
M19-MEL melanoma = test system: M19-MEL melanoma
EKVX NSCLC = test system: EKVX NSCLC
KM12 colon = test system: KM12 colon
UO-31 renal = test system: UO-31 renal
DLD-1 colon = test system: DLD-1 colon
SF-539 CNS = test system: SF-539 CNS
NCI-H460 lung = test system: NCI-H460 lung
SNB-75 CNS = test system: SNB-75 CNS
HCT-116 colon = test system: HCT-116 colon
SNB-19 CNS = test system: SNB-19 CNS
LOX IMVI melanoma = test system: LOX IMVI melanoma
SNB-78 CNS = test system: SNB-78 CNS
DMS 273 small cell lung = test system: DMS 273 small cell lung
TK-10 renal = test system: TK-10 renal
HL-60(TB) leukemia = test system: HL-60(TB) leukemia
COLO 205 colon = test system: COLO 205 colon
HCC-2998 colon = test system: HCC-2998 colon
HCT-15 colon = test system: HCT-15 colon
SF-295 CNS = test system: SF-295 CNS
LXFL 529 NSCLC = test system: LXFL 529 NSCLC
OVCAR-5 ovarian = test system: OVCAR-5 ovarian
786-0 renal = test system: 786-0 renal
RXF 393 renal = test system: RXF 393 renal
CAKI-1 renal = test system: CAKI-1 renal
UACC-62 melanoma = test system: UACC-62 melanoma
CCRF-CEM leukemia = test system: CCRF-CEM leukemia
SW-620 colon = test system: SW-620 colon
DMS 114 small cell lung = test system: DMS 114 small cell lung
M14 melanoma = test system: M14 melanoma
OVCAR-3 ovarian = test system: OVCAR-3 ovarian
SF-268 CNS = test system: SF-268 CNS
UACC-257 melanoma = test system: UACC-257 melanoma
OVCAR-8 ovarian = test system: OVCAR-8 ovarian
HT29 colon = test system: HT29 colon
XF 498 CNS = test system: XF 498 CNS
KM20L2 colon = test system: KM20L2 colon
RPMI-8226 leukemia = test system: RPMI-8226 leukemia
A549 NSCLC = test system: A549 NSCLC

For `CCCCCCC[CH2][Sn]([CH2]CCCCCCC)([O]c1c([N+](=O)[O-])cc([N+](=O)[O-])cc1[N+](=O)[O-])[O]c1c([N+](=O)[O-])cc([N+](=O)[O-])cc1[N+](=O)[O-]`, the GI50 (MALME-3M melanoma) was 1.67 µM, the TGI (MALME-3M melanoma) was 3.42 µM and the GI50 (A498 renal) was 2.59 µM. For the same molecule, the TGI (A498 renal) was 6.45 µM, the GI50 (NCI-H322M lung) was 5.02 µM and the TGI (NCI-H322M lung) was 17.3 µM. For the same molecule, the GI50 (IGROV1 ovarian) was 3.35 µM, the TGI (IGROV1 ovarian) was 16.5 µM and the GI50 (NCI-H522 lung) was 2 µM. It also gave a TGI (NCI-H522 lung) of 6.05 µM, a GI50 (SK-MEL-5 melanoma) of 1.78 µM and a TGI (SK-MEL-5 melanoma) of 3.73 µM. It also gave a GI50 (K-562 leukemia) of 1.5 µM, a TGI (K-562 leukemia) of 8.67 µM and a GI50 (MOLT-4 leukemia) of 1.7 µM. The TGI (MOLT-4 leukemia) was 5.79 µM, the GI50 (ACHN renal) was 6.26 µM and the TGI (ACHN renal) was 21.2 µM. The GI50 (HOP-62 NSCLC) was 1.7 µM, the TGI (HOP-62 NSCLC) was 3.36 µM and the GI50 (SN12C renal) was 2.11 µM. For the same molecule, the TGI (SN12C renal) was 6.12 µM, the GI50 (SK-MEL-2 melanoma) was 1.75 µM and the TGI (SK-MEL-2 melanoma) was 3.29 µM. It also gave a GI50 (M19-MEL melanoma) of 3.19 µM, a TGI (M19-MEL melanoma) of 13.8 µM and a GI50 (EKVX NSCLC) of 5.41 µM. It also gave a TGI (EKVX NSCLC) of 24.1 µM, a GI50 (KM12 colon) of 3.91 µM and a TGI (KM12 colon) of 16.3 µM. It also gave a GI50 (UO-31 renal) of 1.56 µM, a TGI (UO-31 renal) of 4.74 µM and a GI50 (DLD-1 colon) of 3.21 µM. It also gave a TGI (DLD-1 colon) of 13.3 µM, a GI50 (SF-539 CNS) of 2.86 µM and a TGI (SF-539 CNS) of 9.92 µM. The GI50 (NCI-H460 lung) was 4.54 µM, the GI50 (SNB-75 CNS) was 4.71 µM and the TGI (SNB-75 CNS) was 19.3 µM. It also gave a GI50 (HCT-116 colon) of 2.38 µM, a TGI (HCT-116 colon) of 10.1 µM and a GI50 (SNB-19 CNS) of 4.84 µM. It also gave a TGI (SNB-19 CNS) of 20.8 µM, a GI50 (LOX IMVI melanoma) of 2.1 µM and a TGI (LOX IMVI melanoma) of 5.51 µM. For the same molecule, the GI50 (SNB-78 CNS) was 3.45 µM, the TGI (SNB-78 CNS) was 17.8 µM and the GI50 (DMS 273 small cell lung) was 2.93 µM. The TGI (DMS 273 small cell lung) was 13.2 µM, the GI50 (TK-10 renal) was 5.24 µM and the TGI (TK-10 renal) was 18.6 µM. It also gave a GI50 (HL-60(TB) leukemia) of 1.71 µM, a TGI (HL-60(TB) leukemia) of 6.2 µM and a GI50 (COLO 205 colon) of 2.17 µM. It also gave a TGI (COLO 205 colon) of 5.45 µM, a GI50 (HCC-2998 colon) of 1.39 µM and a TGI (HCC-2998 colon) of 2.83 µM. It also gave a GI50 (HCT-15 colon) of 3.02 µM, a TGI (HCT-15 colon) of 19 µM and a GI50 (SF-295 CNS) of 4.09 µM. The TGI (SF-295 CNS) was 14.7 µM, the GI50 (LXFL 529 NSCLC) was 1.61 µM and the TGI (LXFL 529 NSCLC) was 3.09 µM. For the same molecule, the GI50 (OVCAR-5 ovarian) was 7.03 µM, the TGI (OVCAR-5 ovarian) was 19.8 µM and the GI50 (786-0 renal) was 1.44 µM. For the same molecule, the TGI (786-0 renal) was 2.98 µM, the GI50 (RXF 393 renal) was 1.53 µM and the TGI (RXF 393 renal) was 3.8 µM. For the same molecule, the GI50 (CAKI-1 renal) was 3.73 µM, the TGI (CAKI-1 renal) was 21.3 µM and the GI50 (UACC-62 melanoma) was 2.05 µM. The TGI (UACC-62 melanoma) was 5.92 µM, the GI50 (CCRF-CEM leukemia) was 1.93 µM and the TGI (CCRF-CEM leukemia) was 7.94 µM. For the same molecule, the GI50 (SW-620 colon) was 2.05 µM, the TGI (SW-620 colon) was 7.68 µM and the GI50 (DMS 114 small cell lung) was 2.58 µM. The TGI (DMS 114 small cell lung) was 8.37 µM, the GI50 (M14 melanoma) was 2.32 µM and the TGI (M14 melanoma) was 7.95 µM. The GI50 (OVCAR-3 ovarian) was 3.05 µM, the TGI (OVCAR-3 ovarian) was 11.1 µM and the GI50 (SF-268 CNS) was 3.18 µM. It also gave a TGI (SF-268 CNS) of 14.9 µM, a GI50 (UACC-257 melanoma) of 1.59 µM and a TGI (UACC-257 melanoma) of 5.03 µM. It also gave a GI50 (OVCAR-8 ovarian) of 2.69 µM, a TGI (OVCAR-8 ovarian) of 12.9 µM and a GI50 (HT29 colon) of 4.91 µM. For the same molecule, the TGI (HT29 colon) was 20 µM, the GI50 (XF 498 CNS) was 2.23 µM and the TGI (XF 498 CNS) was 3.84 µM. For the same molecule, the GI50 (KM20L2 colon) was 3.59 µM, the TGI (KM20L2 colon) was 14.1 µM and the GI50 (RPMI-8226 leukemia) was 1.23 µM. For the same molecule, the TGI (RPMI-8226 leukemia) was 4.45 µM, the GI50 (A549 NSCLC) was 12.3 µM and the TGI (A549 NSCLC) was 37.1 µM.
